Data as given in BindingDB's records for doi:10.1016/S1074-5521(03)00159-5 (Merck Research Laboratories, 2003).

Chains of the proteins cited; added tags and fusions are not shown. Lines headed by an entry give the natural chain unless they say otherwise; changes in a name come on top.
UniProt P53779: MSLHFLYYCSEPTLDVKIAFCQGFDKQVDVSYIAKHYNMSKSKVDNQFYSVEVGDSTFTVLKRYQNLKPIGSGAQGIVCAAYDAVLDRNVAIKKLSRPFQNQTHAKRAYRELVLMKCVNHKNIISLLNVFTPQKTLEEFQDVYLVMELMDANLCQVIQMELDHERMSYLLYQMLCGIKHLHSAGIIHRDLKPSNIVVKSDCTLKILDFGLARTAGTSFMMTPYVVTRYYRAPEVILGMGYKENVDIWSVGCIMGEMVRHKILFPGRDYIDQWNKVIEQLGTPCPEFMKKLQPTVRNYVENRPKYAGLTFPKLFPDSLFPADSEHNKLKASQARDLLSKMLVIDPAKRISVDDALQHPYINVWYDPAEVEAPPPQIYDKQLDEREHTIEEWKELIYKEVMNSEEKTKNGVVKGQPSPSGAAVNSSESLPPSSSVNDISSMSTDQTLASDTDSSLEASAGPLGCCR

Molecular target: Mitogen-activated protein kinase 10 (Homo sapiens, UniProt P53779)
Assay: Homogeneous Time-Resolved Fluorescence (HTRF) Enzyme Assay
Conditions: pH 7; 22 °C
Protocol: The HTRF signal is calculated as a ratio of the A-counts to B-counts. The signal produced is proportional to the amount of JNK3 or p38 kinase activity present during the kinase reaction phase.

Q: `CCCn1c(C2CCN(C)CC2)nc(-c2ccc(Cl)c(Cl)c2)c1-c1ccnc(NC2CC2)n1` was tested. Which pIC50 did it give?
A: The pIC50 was 8.15.

pIC50: −log10 of the molar value.
